Assay results from PubChem BioAssay AID651999 (Sanford-Burnham Center for Chemical Genomics, 2013).
Only a part is listed here, and it is no random draw. Some results for these compounds are left out of this collection, so the calls shown say nothing about other tests. Active and inactive are the calls of the source.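 The calls were made as follows: active = pattern-corrected inhibition above about 35%, with an unprinted fluorescence ratio check between 0.5 and 1.5 (limit read from the data, passing the limit was not always enough); inactive = the rest.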

Protein sequences, listed by entry. Tags and fused reporters are not part of them.
UniProt Q92905, whole entry: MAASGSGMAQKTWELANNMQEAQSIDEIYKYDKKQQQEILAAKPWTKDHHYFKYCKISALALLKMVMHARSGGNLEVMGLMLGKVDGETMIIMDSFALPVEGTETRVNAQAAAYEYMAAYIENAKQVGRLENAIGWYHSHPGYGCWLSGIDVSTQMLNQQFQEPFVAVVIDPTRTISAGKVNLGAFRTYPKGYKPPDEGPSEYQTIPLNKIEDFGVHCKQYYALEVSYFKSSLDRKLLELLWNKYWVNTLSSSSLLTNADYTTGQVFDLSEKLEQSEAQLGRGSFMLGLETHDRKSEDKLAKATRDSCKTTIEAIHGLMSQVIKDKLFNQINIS

These molecules were tested against COP9 signalosome complex subunit 5 (Homo sapiens) (UniProt Q92905) (assay: CSN5 deneddylase inhibitors on cullin-RING ligase – biochemical, fluorescence polarization, uHTS, primary screen (AID 651999;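 also: 0% = enzyme with substrate and 100% = substrate without enzyme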)). Conditions: Purified CSN, SCF-Nedd8-OG deneddylation, at 12.5 µM, stronger effect = higher value.
Method in brief: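 Detection – fluorescence polarization · System – HEK293T-derived human Csn5 enzyme · Controls – substrate-only high control, full reaction low control · Timing – 90 min, room temperature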

SMILES | inhibition
C=CCN1CCN(CCOC(=O)C(O)(c2ccccc2)c2ccccc2)CC1 | inactive: 2.01%
O=C(NCC1(N2CCCCC2)CCCCC1)c1cc(F)c(F)cc1Cl | inactive: 1.39%
COc1ccc(C(=O)NCC2(N(C)C)CCCCC2)cc1 | inactive: -0.67%
Cc1cc(C(=O)NCC2(N3CCCCC3)CCCCC2)ccc1[N+](=O)[O-] | inactive: 3.94%
CCN1CCCC(OC(=O)C2(O)c3ccccc3C=Cc3ccccc32)C1 (stereo unspecified) | inactive: -6.4%
O=C(NCC1(N2CCCCC2)CCCCC1)c1cccc(Br)c1 | inactive: -5.77%
Cc1ccccc1C(=O)NCC1(N2CCCCC2)CCCCC1 | inactive: 4.41%
CN(C)C1CCCC1OC(=O)C(O)(c1ccccc1)c1ccccc1 (stereo unspecified) | inactive: -9.98%
CN(C)c1ccc(C(=O)NCC2(N(C)C)CCCCC2)cc1 | inactive: -2.71%
CCN(CC)CC(C)C(C)OC(=O)C(O)(c1ccccc1)c1ccccc1 (stereo unspecified) | inactive: -0.33%
COc1cc(SC)ccc1C(=O)NCC1(N(C)C)CCCCC1 | inactive: -1.58%
CC(C)N1C(=O)CC2(CCN(CCOC(=O)C(O)(c3ccccc3)c3ccccc3)CC2)C1=O | inactive: 1.09%
Cc1ccc(C(=O)NCC2(N3CCCCC3)CCCCC2)cc1 | inactive: 0.12%
O=C(NCC1(N2CCCCC2)CCCCC1)c1cc([N+](=O)[O-])ccc1Cl | inactive: 0.33%
CN1[C@@H]2CC[C@H]1CC(OC(=O)C(O)(c1ccccc1)c1ccccc1)C2 (stereo partly specified) | inactive: -0.4%
C=C(C)C#CC(O)(C(=O)OC1CCN(C)CC1)c1ccccc1 (stereo unspecified) | inactive: 3.37%
COc1ccc(Br)c(C(=O)NCC2(N3CCCCC3)CCCCC2)c1 | inactive: 2.14%
CC(C)Oc1ccc(C(=O)NCC2(N(C)C)CCCCC2)cc1 | inactive: 2.58%
O=C(OCCN1CCCC1)C(O)(c1ccccc1)c1ccccc1 | inactive: -1.75%
CN(C)c1cccc(C(=O)NCC2(N(C)C)CCCCC2)c1 | inactive: -2.17%
O=C(OC1CN2CCC1CC2)C(CO)(c1ccccc1)c1ccccc1 (stereo unspecified) | inactive: 0.53%
COc1cccc(C(=O)NCC2(N3CCCCC3)CCCCC2)c1 | inactive: -0.1%
COc1ccc(Cl)cc1C(=O)NCC1(N(C)C)CCCCC1 | inactive: 3.1%
O=C(NCC1(N2CCCCC2)CCCCC1)c1cccc(Cl)c1 | inactive: -3.47%
CN(C)C1(CNC(=O)c2ccc(Br)cc2)CCCCC1 | inactive: -1.22%
COc1cc(C(=O)NCC2(N(C)C)CCCCC2)c([N+](=O)[O-])cc1OC | inactive: 0.09%
